Measured values taken from PubChem BioAssay AID2744 (NMMLSC, 2010).
Only a part is listed here, and it is no random draw. The source made the active and inactive calls.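 The calls were made as follows: active = fitted half-maximal concentration for changing reporter fluorescence at or below a set limit; inactive = the rest.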

By UniProt entry, the sequences of proteins in these tests, tags left out. Where a name states a change or a piece, a line headed by the entry shows the natural chain unless it says otherwise.
UniProt P08679: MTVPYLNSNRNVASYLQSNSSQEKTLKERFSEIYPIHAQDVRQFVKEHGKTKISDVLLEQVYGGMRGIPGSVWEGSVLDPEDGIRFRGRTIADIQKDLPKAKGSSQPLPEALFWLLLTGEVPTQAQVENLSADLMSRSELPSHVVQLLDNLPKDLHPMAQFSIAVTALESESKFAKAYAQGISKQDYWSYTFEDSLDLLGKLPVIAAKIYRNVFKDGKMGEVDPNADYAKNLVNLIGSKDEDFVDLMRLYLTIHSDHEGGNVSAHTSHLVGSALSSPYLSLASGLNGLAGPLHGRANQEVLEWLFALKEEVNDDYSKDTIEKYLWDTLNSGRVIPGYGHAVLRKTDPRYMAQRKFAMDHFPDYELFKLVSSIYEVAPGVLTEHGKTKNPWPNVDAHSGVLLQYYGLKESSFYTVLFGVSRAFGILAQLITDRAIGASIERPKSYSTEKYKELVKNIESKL

Target: Citrate synthase, peroxisomal (Saccharomyces cerevisiae (strain ATCC 204508 / S288c)) (UniProt P08679)
Experiment: yeast TOR pathway CIT2-GFP reporter potency – flow cytometry, MLPCN hits, dose response (AID 2744)
Conditions: S. cerevisiae CIT2-GFP strain, 3 h, at 33 µM (top of the series)

C[N+]1=C2C=CC=CC=C2SC12C([N+](=O)[O-])=CC([N+](=O)[O-])=C[C-]2[N+](=O)[O-] (stereo unspecified)
GFP fluorescence, higher = induction: inactive
